Yeast UUG start: modulators of yeast start codon fidelity, primary screen, whole organism, S. cerevisiae, single point, plate reader; S. cerevisiae UUG-firefly luciferase reporter, luminescence/redox ratio; activity score, % at 18.7 µM; actives 0.13% (n = 350,000); AID 602363, 2012;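 active = replicate mean at a twofold rise or more, about +100% in these data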;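 also: firefly luciferase made from a UUG start codon reports start codon fidelity; reporter light over untreated wells divided by growth signal over untreated wells; some hits fall short of that in this replicate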
Rtt109 Vps75: inhibitors of Candida albicans Rtt109/Vps75 histone acetyltransferase; Q5AAJ8; inhibition, % at 34.9 µM; hit rate 0.16% among 330,000; purified Rtt109/Vps75, ThioGlo CoA-SH fluorescence, 4 h;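 active = inhibition of at least 50% in every replicate; inconclusive = best replicate reaches 50% inhibition but some replicates fall short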
Cneo AK release: causes C. neoformans cell lysis. lysis activity, % at 15 µM. adenylate kinase release luminescence, 4 h; normalised: neutral wells 0, clomiphene wells 100. hit rate 0.2% among 360,000. AID 651654;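 active = mean lysis activity across replicates of at least 80%, whatever share of replicates individually reach that level; inactive = mean lysis activity below 80%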
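Assay system: C. neoformans cells. Amount: yeast cell density of 5 × 10^6 cells/mL. Technique: AK luminescence. Buffer or medium: YPD. Times: static 4 h at 37 °C with compound, 1 h detection. Dosing: single-point compound dose. Read-out: lysis from increased AK signal.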
C2C12 statin: suppression of simvastatin myotoxicity | AID 602340 | rescue of ATP level, % at 7.49 µM | hit rate 0.78% among 330,000 | C2C12 myotubes + simvastatin, ATP luminescence, 48 h; scaled: DMSO 0, geranylgeraniol control 100;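 active = mean ATP rescue above about 67%, or every replicate alone reaching that limit, limit read from the data, passing the limit was not always enough; inconclusive = no clear call, values can overlap the other calls; inactive = mean under the limit and some replicate under it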;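 note: myotubes were challenged with 10 µM simvastatin during compound exposure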
CDK5 p35 inh: CDK5/p35 (human) kinase inhibition. inhibition, % at 10 µM. hit rate 0.01% among 330,000. Recombinant CDK5/p35, ADP-Glo luminescence, 60 min. Q00535+Q15078. AID 488839;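 active = highest replicate inhibition of at least 50% and at least 75% of replicates reaching 50%; inconclusive = only one of the two criteria met; inactive = both criteria failed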;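 note: plate controls were DMSO neutral control for no effect and GW8510 at 10 µM for full effect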
* marks the source's active call; other numbers are inactive results. Compounds with a hit are over-represented: about 1% of the library has one in this group of screens.

C[C@H](CO)N1C[C@H](C)[C@H](CN(C)C(=O)Nc2ccc(F)cc2)OCCCC[C@H](C)Oc2ccc(NS(=O)(=O)c3ccccc3)cc2C1=O was read as Yeast UUG start -4.7 and Cneo AK release -3.4.
`CC(=O)Nc1nnc(CCN2CCCCC2)s1` gave Yeast UUG start -9.7, Cneo AK release 1.0, C2C12 statin -1.5 and CDK5 p35 inh -0.6.
Screening CC(C)C(=O)Nc1nnc(CCN2CCCCC2)s1 returned Yeast UUG start -19.3, Rtt109 Vps75 52.1*, Cneo AK release 1.6, C2C12 statin -7.3 and CDK5 p35 inh -2.1.
Screening CCCCCc1ccc(OCCCC[n+]2ccccc2)c(CCCCC)c1 returned Rtt109 Vps75 inconclusive and CDK5 p35 inh 0.2.
For CCCCCc1ccc(OCCCC[n+]2cccc(C)c2)c(CCCCC)c1 the results were Rtt109 Vps75 72.6*, C2C12 statin -103.9 and CDK5 p35 inh -0.4.
For CCSS(=O)(=O)c1cccc2cccnc12 the results were Yeast UUG start -8.6, Rtt109 Vps75 153.8*, Cneo AK release 3.3 and CDK5 p35 inh 3.7.
For O=S(=O)(N[C@H]1CC[C@H](CCn2cc(C3CC3)nn2)O[C@H]1CO)c1ccc(F)cc1 the results were Yeast UUG start -2.0, Cneo AK release 18.6 and C2C12 statin 2.1.
Cc1ccc2nc(Nc3ccccc3)c(/C=N/O)c(=O)n2c1 was read as Yeast UUG start 4.4, Rtt109 Vps75 inconclusive, Cneo AK release 1.8, C2C12 statin 9.6 and CDK5 p35 inh 1.8.
For COc1ccc(Nc2nc3ccc(C)cn3c(=O)c2/C=N/O)cc1 the results were Yeast UUG start -11.7, Rtt109 Vps75 0.7, Cneo AK release 0.9, C2C12 statin 109.2* and CDK5 p35 inh -3.6.
`CO[C@H]1CN(C)C(=O)c2ccc(NC(=O)c3ccc(F)cc3)cc2OC[C@@H](C)N(C(=O)c2ccc(F)cc2)C[C@H]1C` gave Yeast UUG start 23.6, Cneo AK release 42.6 and C2C12 statin 13.3.
`CC(=O)Nc1ccc2c(c1)C(=O)N(C)[C@@H]1CC[C@@H](CC(=O)NCCCN3CCOCC3)O[C@@H]1CO2` gave Yeast UUG start -2.7, Cneo AK release 3.1 and C2C12 statin 14.5.
`CC(=O)c1ccc(NC(=O)Nc2sc(NS(=O)(=O)c3ccccc3)nc2C)cc1` gave Yeast UUG start -14.7, Rtt109 Vps75 -0.4, Cneo AK release 0.2, C2C12 statin 99.8* and CDK5 p35 inh -4.1.
Screening Cc1nc(NS(=O)(=O)c2ccccc2)sc1NC(=O)Nc1ccccc1 returned Rtt109 Vps75 7.3, C2C12 statin 0.2 and CDK5 p35 inh -1.5.
`C[C@@H]1CN([C@@H](C)CO)C(=O)c2cccc(NS(=O)(=O)c3cn(C)cn3)c2O[C@@H]1CN(C)S(=O)(=O)c1ccc(Cl)cc1` gave Yeast UUG start 3.5, Cneo AK release 3.1 and C2C12 statin -27.8.
For Cc1ccc(OCC(O)CNC(=O)c2ccccc2C(=O)O)cc1 (configuration not stated) the results were Yeast UUG start 3.6, Rtt109 Vps75 -2.8, Cneo AK release -6.5, C2C12 statin 104.9* and CDK5 p35 inh -0.1.

Four records drawn at random from the list so far:
Screening CC(C)C(=O)Nc1nnc(CCN2CCCCC2)s1 returned Yeast UUG start -19.3, Rtt109 Vps75 52.1*, Cneo AK release 1.6, C2C12 statin -7.3 and CDK5 p35 inh -2.1.
Cc1ccc2nc(Nc3ccccc3)c(/C=N/O)c(=O)n2c1 was read as Yeast UUG start 4.4, Rtt109 Vps75 inconclusive, Cneo AK release 1.8, C2C12 statin 9.6 and CDK5 p35 inh 1.8.
C[C@H](CO)N1C[C@H](C)[C@H](CN(C)C(=O)Nc2ccc(F)cc2)OCCCC[C@H](C)Oc2ccc(NS(=O)(=O)c3ccccc3)cc2C1=O was read as Yeast UUG start -4.7 and Cneo AK release -3.4.
`C[C@@H]1CN([C@@H](C)CO)C(=O)c2cccc(NS(=O)(=O)c3cn(C)cn3)c2O[C@@H]1CN(C)S(=O)(=O)c1ccc(Cl)cc1` gave Yeast UUG start 3.5, Cneo AK release 3.1 and C2C12 statin -27.8.

The listing continues.
`O=C(NNS(=O)(=O)c1ccc(Br)cc1)c1sccc1-n1cccc1` gave Rtt109 Vps75 1.0 and CDK5 p35 inh 3.6.
Screening COc1ccc(S(=O)(=O)NNC(=O)c2sccc2-n2cccc2)cc1 returned Yeast UUG start -13.4, Rtt109 Vps75 -2.8, Cneo AK release -0.6, C2C12 statin 96.1* and CDK5 p35 inh -0.5.
`O=C(C[C@@H]1C=C[C@H](NC(=O)C2CC2)[C@H](CO)O1)Nc1nccs1` gave Yeast UUG start -11.9, Cneo AK release 1.4 and C2C12 statin 3.9.
CCCCN(CCCC)S(=O)(=O)c1ccc(NC(=O)CN2CCOCC2)cc1 was read as Yeast UUG start -5.0, Rtt109 Vps75 1.0, Cneo AK release 0.1, C2C12 statin 129.7* and CDK5 p35 inh 0.3.
For CCOC(=O)c1ccc(NC(=O)c2ccc(NC(=O)c3ccccc3)cc2)cc1 the results were Yeast UUG start -21.3, Rtt109 Vps75 -5.5, Cneo AK release 0.8, C2C12 statin 6.1 and CDK5 p35 inh 0.3.
CCOC(=O)c1cncc(NC(=O)c2ccccc2)c1 was read as Yeast UUG start -12.5, Rtt109 Vps75 -0.5, Cneo AK release -2.6, C2C12 statin 95.4* and CDK5 p35 inh 0.4.
`Cc1ccc(S(=O)(=O)N/N=C\C=C\c2ccccc2)cc1` gave Rtt109 Vps75 51.5* and CDK5 p35 inh -1.6.
For Cc1cc(C)cc(N(C(C)C(=O)NCCC2=CCCCC2)S(C)(=O)=O)c1 (configuration not stated) the results were Yeast UUG start 0.2, Rtt109 Vps75 -11.3, Cneo AK release 2.0, C2C12 statin 93.2* and CDK5 p35 inh -0.2.
Cc1ccc(/C=N/c2sc3c(c2C#N)CCC3)s1 was read as Yeast UUG start -24.7, Rtt109 Vps75 1.5, Cneo AK release -1.7, C2C12 statin 119.7* and CDK5 p35 inh -2.2.
`Cc1ccc2nc(N(CCCN(C)C)C(=O)c3ccc(S(=O)(=O)N(C)C)cc3)sc2c1` gave Rtt109 Vps75 -11.4 and CDK5 p35 inh -0.7.
Screening Cc1ccc2nc(N(CCCN(C)C)C(=O)c3sc4ccccc4c3Cl)sc2c1 returned Yeast UUG start 5.2, Rtt109 Vps75 54.8*, Cneo AK release 21.2 and CDK5 p35 inh 0.7.
C[C@@H]1CN([C@@H](C)CO)C(=O)c2cc(NC(=O)CCCN(C)C)ccc2O[C@@H]1CN(C)Cc1ccc(C(=O)O)cc1 was read as Cneo AK release -0.1 and C2C12 statin -16.5.
Screening CCCCCC1CC(CC(=O)O)C(=O)O1 (configuration not stated) returned Yeast UUG start -0.7, Rtt109 Vps75 -13.9, Cneo AK release 3.4, C2C12 statin 119.3* and CDK5 p35 inh 1.4.
Screening O=C(CCn1c(=O)c2ccccc2n(Cc2cccc([N+](=O)[O-])c2)c1=O)N1CCc2ccccc2C1 returned Yeast UUG start -6.0, Rtt109 Vps75 59.0*, Cneo AK release -5.4 and CDK5 p35 inh -1.0.
`CN(C)c1ccc(/C=C/c2ccc3c4ccccc4ccc3[n+]2-c2ccccc2)cc1` gave Yeast UUG start 94.9, Rtt109 Vps75 64.3*, Cneo AK release -9.9, C2C12 statin -171.0 and CDK5 p35 inh 17.2.
CN(C)c1ccc(/C=C/c2cccc[n+]2[O-])cc1 was read as Yeast UUG start -21.1, Rtt109 Vps75 -49.4, Cneo AK release -10.9, C2C12 statin 0.0 and CDK5 p35 inh 1.2.
Screening O=C(C[C@H]1C[C@H]2c3cc(NC(=O)C4CCOCC4)ccc3O[C@H]2[C@H](CO)O1)NCCN1CCCCC1 returned Cneo AK release -5.0 and C2C12 statin -1.0.
Cc1noc(C)c1NC(=O)N1C[C@@H](O)COC[C@H]2O[C@H](CC(=O)NCC3CCCCC3)CC[C@@H]21 was read as Cneo AK release 2.5 and C2C12 statin 6.0.

Assay outcomes (PubChem)
